This test has as its system LXR. The test is described as follows: LXRE-driven luciferase reporter assay in Huh-7 cells. Particulars: 48 h, in the presence of T0901317, 1a 10 μM, 1c 30 μM, 1g 5 μM. For orientation: Reporter assays use an easily measured gene product as a stand-in for the process of interest.

The source of these data is article PMC8751641, “Synthesis and Antiviral Activities of Neoechinulin B and Its Derivatives” (Journal of Natural Products, 2021).

For `C=CC(C)(C)c1[nH]c2ccccc2c1/C=c1\[nH]c(=O)c(=C)[nH]c1=O` [1a, neoechinulin B], the “Effect on T0901317-induced LXR-mediated reporter activity” value is reported as “reduced the T0901317-induced reporter activity”.
As for `C=c1[nH]c(=O)/c(=C/c2ccccc2)[nH]c1=O` [1c], the entry is “did not show LXR antagonistic activity even at 30 μM”.
Consider `C=c1[nH]c(=O)/c(=C/c2ccc(C(C)(C)C)cc2)[nH]c1=O` [1g], for which the “Effect on T0901317-induced LXR-mediated reporter activity” value is on record as “reduced the T0901317-induced reporter activity”.
